pIC50: −log10 of the molar value.
Target: Cholecystokinin receptor type A (Cavia porcellus, UniProt Q63931)
Assay: Inhibition of [125I]Bolton-Hunter CCK-8 binding to cholecystokinin type A receptor in guinea pig pancreatic membranes.
Format: cell membranes

By UniProt entry, the sequences of proteins in these tests, tags left out.
UniProt Q63931, whole entry: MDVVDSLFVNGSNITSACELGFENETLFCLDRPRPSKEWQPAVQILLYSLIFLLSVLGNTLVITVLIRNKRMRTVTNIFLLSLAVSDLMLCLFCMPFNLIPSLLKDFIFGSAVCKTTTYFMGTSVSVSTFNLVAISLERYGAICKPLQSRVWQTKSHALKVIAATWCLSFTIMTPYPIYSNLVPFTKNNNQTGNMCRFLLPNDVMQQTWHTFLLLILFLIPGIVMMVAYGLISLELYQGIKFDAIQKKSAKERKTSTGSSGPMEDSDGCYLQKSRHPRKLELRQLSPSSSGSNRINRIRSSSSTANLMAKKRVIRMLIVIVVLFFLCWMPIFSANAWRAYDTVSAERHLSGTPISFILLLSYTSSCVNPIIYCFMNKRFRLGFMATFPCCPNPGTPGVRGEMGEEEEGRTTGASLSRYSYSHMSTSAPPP

pIC50: 7.17
Compound: CCCCCN(CCCCC)C(=O)C(Cc1c[nH]c2ccc(OCc3ccccc3)cc12)NC(=O)c1cnc2ccccc2c1 (stereo unspecified)

Reference: ChEMBL document CHEMBL1125805, “Cholecystokinin antagonists: (R)-tryptophan-based hybrid antagonists of high affinity and selectivity for CCK-A receptors” (J Med Chem, 1991)
